The record followed here is ChEMBL document CHEMBL3632504, “Discovery of 1H-pyrazolo[3,4-b]pyridines as potent dual orexin receptor antagonists (DORAs)” (Bioorg Med Chem Lett, 2015).

Sequences of proteins named here, by UniProt entry; tags and fusion partners are left off.
UniProt O43614, whole entry: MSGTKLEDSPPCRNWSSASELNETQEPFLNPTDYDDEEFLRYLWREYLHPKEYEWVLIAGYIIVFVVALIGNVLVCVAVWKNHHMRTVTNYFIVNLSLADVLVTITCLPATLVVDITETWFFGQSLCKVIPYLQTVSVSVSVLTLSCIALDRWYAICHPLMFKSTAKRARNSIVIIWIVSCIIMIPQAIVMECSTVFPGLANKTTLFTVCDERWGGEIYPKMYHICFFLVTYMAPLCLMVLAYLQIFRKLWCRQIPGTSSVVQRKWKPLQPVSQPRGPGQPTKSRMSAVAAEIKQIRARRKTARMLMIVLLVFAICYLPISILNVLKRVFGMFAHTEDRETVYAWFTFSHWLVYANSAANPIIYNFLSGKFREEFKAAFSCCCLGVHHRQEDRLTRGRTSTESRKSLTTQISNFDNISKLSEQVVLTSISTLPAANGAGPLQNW

pKi: −log10 of the molar value.

The target of the assay is Orexin receptor type 2 (Homo sapiens, UniProt O43614). Kind of assay: Antagonist activity against human orexin 2 receptor after 1 hr by Ca2+ sensitive Fluo4-AM fluorescent dye-based FLIPR assay. It is filed as functional.

As usually defined, the pKi is the negative decadic logarithm of the Ki, by convention in mol/L. Low readings indicate a large Ki, high ones a small Ki. On to `Cc1n[nH]c(C)c1[C@@H](C)NC(=O)COc1cc(C(F)(F)F)c2c(-c3ccccc3)nn(C)c2n1`, for which the pKi is below 5.70.
